{"source": "paper PMC9365693", "about": "“Teixobactin kills bacteria by a two-pronged attack on the cell envelope” (Nature, 2022)", "assay": "HS-AFM of teixobactin–lipid II fibrils on supported lipid bilayer", "conditions": "microscopy experiments", "experimental": "The HS-AFM images were acquired in amplitude modulation tapping mode in liquid using a high-speed atomic force microscope (RIBM). Short cantilevers (approximately 7 μm) with a nominal spring constant of 0.15 N m^−1 were used (USC-F1.2-k0.15, NanoWorld). A minimal imaging force was applied by using a small set-point amplitude of 0.8 nm (for a 1 nm free amplitude). […] The lipid bilayer was obtained by incubating LUVs containing DOPC and lipid II (prepared as mentioned above) on top of a freshly cleaved mica for 20–30 min. […] Imaging was started on the lipid bilayer surface in recording buffer. […] Images were primarily processed using built-in scripts (RIBM) in Igor Pro (Wavemetrics) and analysed using ImageJ software. The images or videos were corrected minimally for tilt, drift and contrast. […] Image acquisition rate varies from 0.5 frames per second to 2 frames per seconds (see Fig. 2, Extended Data Figs. 5, 6, or legends of Supplementary Videos 1 and 2), and the line rate varies from 150 lines per second to 400 lines per second. […] Stated errors are standard deviation."}
{"substance": "teixobactin", "values": [{"measurement": "stability of the supramolecular fibrils (in words)", "value": "stable for hours"}]}
